# Measured values as given in patent US20200024278A1, “COMPOSITION COMPRISING ANTIBIOTIC COMPOUND AND AN HETEROCYCLIC COMPOUND AND THEIR USE IN PREVENTING OR TREATING BACTERIAL INFECTIONS” (MUTABILIS, priority 2016, published 2020).
# Columns and labels:
# Assay in all cases: MIC, broth microdilution (CLSI), substance alone or ATB combined with compound at 4 or 8 μg/mL
# SPN 49619 = type: cell-based, S. pneumoniae
# SAU 29213 = type: cell-based, S. aureus
# PAE 105250 = type: cell-based, P. aeruginosa
# PAE UFR48 = type: cell-based, P. aeruginosa
# ECO UFR39 = type: cell-based, E. coli
# KPN UFR42 = type: cell-based, K. pneumoniae
# ECO 190317 = type: cell-based, E. coli
# KPN 6299 = type: cell-based, K. pneumoniae
# PAE UFR90 = type: cell-based, P. aeruginosa
# KPN BAA-1898 = type: cell-based, K. pneumoniae
# ECL P99 = type: cell-based, E. cloacae
compound,measurement,setting,value
"CC1(C)S[C@@H]2[C@H](NC(=O)[C@H](N)c3ccc(O)cc3)C(=O)N2[C@H]1C(=O)O [AMX, Amoxicillin, reference compound]",MIC,"SPN 49619; Streptococcus pneumoniae, antibiotic alone",0.125 µg/mL
same,MIC ATB combined with Example 1 @8 μg/ml,SPN 49619; with Example 1 @8 μg/ml,0.125 µg/mL
same,MIC ATB combined with Example 1 @8 μg/ml,SPN 49619; with Example 1 at 8 μg/ml,0.125 µg/mL
same,MIC ATB combined with Example 7 @8 μgml,SAU 29213; with Example 7 at 8 μg/ml,0.125 µg/mL
same,MIC ATB combined with Example 13 @8 μg/ml,SAU 29213; with Example 13 at 8 μg/ml,0.125 µg/mL
same,MIC ATB combined with Example 1 @8 μg/ml,PAE 105250; with Example 1 @8 μg/ml,0.125 µg/mL
same,MIC ATB combined with Example 1 @8 μg/ml,PAE 105250; with Example 1 at 8 μg/ml,0.125 µg/mL
CO/N=C(\C(=O)N[C@@H]1C(=O)N2C(C(=O)O)=C(COC(C)=O)CS[C@H]12)c1csc(N)n1 [CTX],MIC ATB alone,PAE UFR48; antibiotic alone,>32 µg/mL
same,MIC ATB combined with Example 9 @4 μg/ml,PAE UFR48; with Example 9 @4 μg/ml,>32 µg/mL
same,MIC ATB combined with Example 9 @4 μg/ml,PAE UFR48; with Example 9 at 4 μg/ml,>32 µg/mL
same,MIC ATB combined with Example 13 @8 μg/ml,PAE UFR48; with Example 13 at 8 μg/ml,>32 µg/mL
same,MIC ATB alone,ECO UFR39; antibiotic alone,>32 µg/mL
same,MIC ATB combined with Example 1 @8 μg/ml,ECO UFR39; with Example 1 @8 μg/ml,>32 µg/mL
same,MIC ATB combined with Example 1 @8 μg/ml,ECO UFR39; with Example 1 at 8 μg/ml,>32 µg/mL
same,MIC ATB combined with Example 7 @8 μgml,ECO UFR39; with Example 7 at 8 μg/ml,<0.031 µg/mL
same,MIC ATB combined with Example 9 @4 μg/ml,ECO UFR39; with Example 9 @4 μg/ml,<0.031 µg/mL
same,MIC ATB combined with Example 9 @4 μg/ml,ECO UFR39; with Example 9 at 4 μg/ml,<0.031 µg/mL
same,MIC ATB combined with Example 11 @8 μg/ml,ECO UFR39; with Example 11 at 8 μg/ml,<0.031 µg/mL
same,MIC ATB combined with Example 12 @8 μg/ml,ECO UFR39; with Example 12 at 8 μg/ml,<0.031 µg/mL
same,MIC ATB combined with Example 14 @8 μg/ml,ECO UFR39; with Example 14 at 8 μg/ml,<0.031 µg/mL
same,MIC ATB combined with Example 15 @4 μgml,ECO UFR39; with Example 15 at 4 μg/ml,<0.031 µg/mL
same,MIC ATB combined with Example 16 @4 μg/ml,ECO UFR39; with Example 16 at 4 μg/ml,<0.031 µg/mL
same,MIC ATB alone,KPN UFR42; antibiotic alone,>32 µg/mL
same,MIC ATB combined with Example 1 @8 μg/ml,KPN UFR42; with Example 1 @8 μg/ml,>32 µg/mL
same,MIC ATB combined with Example 1 @8 μg/ml,KPN UFR42; with Example 1 at 8 μg/ml,>32 µg/mL
same,MIC ATB combined with Example 7 @8 μgml,KPN UFR42; with Example 7 at 8 μg/ml,<0.031 µg/mL
same,MIC ATB combined with Example 9 @4 μg/ml,KPN UFR42; with Example 9 @4 μg/ml,>32 µg/mL
same,MIC ATB combined with Example 9 @4 μg/ml,KPN UFR42; with Example 9 at 4 μg/ml,>32 µg/mL
same,MIC ATB combined with Example 11 @8 μg/ml,KPN UFR42; with Example 11 at 8 μg/ml,<0.031 µg/mL
same,MIC ATB combined with Example 12 @8 μg/ml,KPN UFR42; with Example 12 at 8 μg/ml,<0.031 µg/mL
same,MIC ATB combined with Example 13 @8 μg/ml,KPN UFR42; with Example 13 at 8 μg/ml,>32 µg/mL
same,MIC ATB combined with Example 14 @8 μg/ml,KPN UFR42; with Example 14 at 8 μg/ml,<0.031 µg/mL
same,MIC ATB combined with Example 15 @4 μgml,KPN UFR42; with Example 15 at 4 μg/ml,<0.031 µg/mL
same,MIC ATB combined with Example 16 @4 μg/ml,KPN UFR42; with Example 16 at 4 μg/ml,<0.031 µg/mL
same,MIC ATB combined with Example 9 @4 μg/ml,SAU 29213; with Example 9 @4 μg/ml,<0.031 µg/mL
same,MIC ATB combined with Example 9 @4 μg/ml,SAU 29213; with Example 9 at 4 μg/ml,<0.031 µg/mL
same,MIC ATB combined with Example 12 @8 μg/ml,SAU 29213; with Example 12 at 8 μg/ml,<0.031 µg/mL
same,MIC ATB combined with Example 14 @8 μg/ml,SAU 29213; with Example 14 at 8 μg/ml,<0.031 µg/mL
same,MIC ATB combined with Example 16 @4 μg/ml,SAU 29213; with Example 16 at 4 μg/ml,<0.031 µg/mL
same,MIC ATB combined with Example 7 @8 μgml,ECO 190317; with Example 7 at 8 μg/ml,<0.031 µg/mL
same,MIC ATB combined with Example 9 @4 μg/ml,ECO 190317; with Example 9 @4 μg/ml,<0.031 µg/mL
same,MIC ATB combined with Example 9 @4 μg/ml,ECO 190317; with Example 9 at 4 μg/ml,<0.031 µg/mL
same,MIC ATB combined with Example 11 @8 μg/ml,ECO 190317; with Example 11 at 8 μg/ml,<0.031 µg/mL
same,MIC ATB combined with Example 12 @8 μg/ml,ECO 190317; with Example 12 at 8 μg/ml,<0.031 µg/mL
same,MIC ATB combined with Example 14 @8 μg/ml,ECO 190317; with Example 14 at 8 μg/ml,<0.031 µg/mL
same,MIC ATB combined with Example 15 @4 μgml,ECO 190317; with Example 15 at 4 μg/ml,<0.031 µg/mL
same,MIC ATB combined with Example 16 @4 μg/ml,ECO 190317; with Example 16 at 4 μg/ml,<0.031 µg/mL
same,MIC ATB combined with Example 1 @8 μg/ml,KPN 6299; with Example 1 @8 μg/ml,0.25 µg/mL
same,MIC ATB combined with Example 1 @8 μg/ml,KPN 6299; with Example 1 at 8 μg/ml,0.25 µg/mL
same,MIC ATB combined with Example 7 @8 μgml,KPN 6299; with Example 7 at 8 μg/ml,<=0.031 μg/mL
same,MIC ATB combined with Example 9 @4 μg/ml,KPN 6299; with Example 9 @4 μg/ml,<=0.031 μg/mL
same,MIC ATB combined with Example 9 @4 μg/ml,KPN 6299; with Example 9 at 4 μg/ml,<=0.031 μg/mL
same,MIC ATB combined with Example 11 @8 μg/ml,KPN 6299; with Example 11 at 8 μg/ml,<0.031 µg/mL
same,MIC ATB combined with Example 12 @8 μg/ml,KPN 6299; with Example 12 at 8 μg/ml,<0.031 µg/mL
same,MIC ATB combined with Example 14 @8 μg/ml,KPN 6299; with Example 14 at 8 μg/ml,<0.031 µg/mL
same,MIC ATB combined with Example 15 @4 μgml,KPN 6299; with Example 15 at 4 μg/ml,<=0.031 μg/mL
same,MIC ATB combined with Example 16 @4 μg/ml,KPN 6299; with Example 16 at 4 μg/ml,<=0.031 μg/mL
same,MIC ATB alone,PAE UFR90; antibiotic alone,>32 µg/mL
same,MIC ATB combined with Example 9 @4 μg/ml,PAE UFR90; with Example 9 @4 μg/ml,>32 µg/mL
same,MIC ATB combined with Example 9 @4 μg/ml,PAE UFR90; with Example 9 at 4 μg/ml,>32 µg/mL
same,MIC ATB combined with Example 12 @8 μg/ml,PAE UFR90; with Example 12 at 8 μg/ml,>32 µg/mL
same,MIC ATB combined with Example 13 @8 μg/ml,PAE UFR90; with Example 13 at 8 μg/ml,>32 µg/mL
same,MIC ATB combined with Example 7 @8 μgml,KPN BAA-1898; with Example 7 at 8 μg/ml,<=0.031 μg/mL
same,MIC ATB combined with Example 9 @4 μg/ml,KPN BAA-1898; with Example 9 @4 μg/ml,<0.031 µg/mL
same,MIC ATB combined with Example 9 @4 μg/ml,KPN BAA-1898; with Example 9 at 4 μg/ml,<0.031 µg/mL
same,MIC ATB combined with Example 11 @8 μg/ml,KPN BAA-1898; with Example 11 at 8 μg/ml,<0.031 µg/mL
same,MIC ATB combined with Example 12 @8 μg/ml,KPN BAA-1898; with Example 12 at 8 μg/ml,<0.031 µg/mL
same,MIC ATB combined with Example 13 @8 μg/ml,KPN BAA-1898; with Example 13 at 8 μg/ml,0.5 µg/mL
same,MIC ATB combined with Example 14 @8 μg/ml,KPN BAA-1898; with Example 14 at 8 μg/ml,<0.031 µg/mL
same,MIC ATB combined with Example 15 @4 μgml,KPN BAA-1898; with Example 15 at 4 μg/ml,<=0.031 μg/mL
same,MIC ATB combined with Example 16 @4 μg/ml,KPN BAA-1898; with Example 16 at 4 μg/ml,<0.031 µg/mL
same,MIC ATB combined with Example 9 @4 μg/ml,ECL P99; with Example 9 @4 μg/ml,<0.031 µg/mL
same,MIC ATB combined with Example 9 @4 μg/ml,ECL P99; with Example 9 at 4 μg/ml,<0.031 µg/mL
same,MIC ATB combined with Example 11 @8 μg/ml,ECL P99; with Example 11 at 8 μg/ml,<0.031 µg/mL
same,MIC ATB combined with Example 12 @8 μg/ml,ECL P99; with Example 12 at 8 μg/ml,<0.031 µg/mL
same,MIC ATB combined with Example 14 @8 μg/ml,ECL P99; with Example 14 at 8 μg/ml,<0.031 µg/mL
same,MIC ATB combined with Example 16 @4 μg/ml,ECL P99; with Example 16 at 4 μg/ml,<0.031 µg/mL
